In the supplement of paper PMC12494721:
For some assays here: This list holds what a sample rich in hits left over.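 Rule for the calls: for the amine columns active = adjusted P below 0.05 in both replicates with a change the same way and a mean fold change under 0.8 or over 1.25; inactive = the rest.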 For some assays here: What follows is the remainder of the data, with few or none of the lowest values. Only a part is listed here, and it is no random draw.

Legend:
Details in all cases: 20 µM; incubation time: 27 h, anaerobic, 37 °C
[1] = system: Clostridium sporogenes DSM 1664; assay: growth (OD595) fold change vs plate DMSO controls (fold change (ratio)); higher = more growth
In short: (§1)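 Each value is the mean of 2 biological replicates, and fold changes above 1.5 were set to NA. The underlying readings were taken at 595 nm from shaken anaerobic mGAM cultures in 96-well plates after 27 h at 37 °C. They were blank-subtracted, corrected for compound background using 20 µM compound solutions in water, and converted to OD with a calibration factor of 5. Growth is the fold change relative to the median of the plate DMSO controls.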

Escherichia coli IAI1 [2] = assay: as above
In short: as §1

[3] = system: Klebsiella aerogenes DSM 30053; assay: as above
In short: as §1

[4] = system: Klebsiella aerogenes DSM 30053; assay: fold change of Histamine concentration vs plate DMSO controls (fold change (ratio)); higher = more amine produced, active = hit call of the paper (significant change in both replicates, either direction)
In short: (§2)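 Each value is the fold change relative to DMSO-only wells on the same plate. Four gut bacterial strains were grown anaerobically in mGAM at 37 °C for 27 h in 80 µL wells, starting at OD 0.1 before a 1:1 dilution, with compounds at 20 µM final (sweeteners 50 µM). Whole cultures were extracted with cold acetonitrile/methanol containing 0.1% formic acid, centrifuged, and amines were quantified by LC–triple-quadrupole MS (dynamic MRM) against external calibration curves with within-batch drift correction. Values are means of 2 biological replicates.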

Escherichia coli IAI1 [5] = assay: fold change of Putrescine concentration vs plate DMSO controls (fold change (ratio)); higher = more amine produced, active = hit call of the paper (significant change in both replicates, either direction)
In short: as §2

[6] = system: Klebsiella aerogenes DSM 30053; assay: as above
In short: as §2

[7] = system: Clostridium sporogenes DSM 1664; assay: fold change of Tryptamine concentration vs plate DMSO controls (fold change (ratio)); higher = more amine produced, active = hit call of the paper (significant change in both replicates, either direction)
In short: as §2

[8] = system: Ruminococcus gnavus DSM 108212; assay: as above
In short: as §2

Escherichia coli IAI1 [9] = assay: fold change of Cadaverine concentration vs plate DMSO controls (fold change (ratio)); higher = more amine produced, active = hit call of the paper (significant change in both replicates, either direction)
In short: as §2

[10] = system: Klebsiella aerogenes DSM 30053; assay: as above
In short: as §2

[11] = system: Ruminococcus gnavus DSM 108212; assay: fold change of 2-Phenylethylamine concentration vs plate DMSO controls (fold change (ratio)); higher = more amine produced, active = hit call of the paper (significant change in both replicates, either direction)
In short: as §2

`COc1cc(Br)c(C[N+]2(CCOCCC3CCC4CC3C4(C)C)CCOCC2)cc1OC` (stereo unspecified) [Pinaverium bromide] was tested. Which growth [1] did it give?
Its growth is 0.807.

And the growth (Escherichia coli IAI1 [2])?
Its growth is 1.03.

And the growth [3]?
The growth was 0.963.

What about the “fold change of Histamine concentration” value [4] of the same molecule?
Its value is inactive: 0.916.

What about the “fold change of Putrescine concentration” value (Escherichia coli IAI1 [5]) of the same molecule?
The value was inactive: 0.904.

What about the “fold change of Putrescine concentration” value [6] of the same molecule?
Its value is inactive: 0.93.

What about the “fold change of Tryptamine concentration” value [7] of the same molecule?
Its value is inactive: 1.07.

And the “fold change of Tryptamine concentration” value [8]?
Its value is inactive: 0.964.

And the “fold change of Cadaverine concentration” value (Escherichia coli IAI1 [9])?
The value was inactive: 0.544.

What about the “fold change of Cadaverine concentration” value [10] of the same molecule?
The value was inactive: 1.01.

What about the “fold change of 2-Phenylethylamine concentration” value [11] of the same molecule?
The value was inactive: 1.34.
